Here are results for one compound from ChEMBL document CHEMBL1127645, “Synthesis, structure-activity relationships, and pharmacological evaluation of a series of fluorinated 3-benzyl-5-indolecarboxamides: identification of 4-[[5-[((2R)-2-methyl-4,4,4-trifluorobutyl)carbamoyl]-1-methyl indol- 3-yl]methyl]-3-methoxy-N-[(2-methylphenyl)sulfonyl]benzamide, a potent, …” (J Med Chem, 1994).

In experiment [1] the test system is Cavia porcellus. As to the kind of experiment: ED50 (p.o.) / ED50 (i.v.) ratio of the compound. The class given is functional. The method in brief:
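Ratio of oral ED50 to intravenous ED50 from the conscious guinea pig LTD4-induced dyspnea model, used as an index of oral bioavailability.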

The test system of experiment [2] is Cysteinyl leukotriene receptor (Cavia porcellus). Briefly: Inhibition of percent protection from LTD4-induced dyspnea in a conscious guinea pig administered intravenously.

SMILES strings stand for the structures.

For orientation: ED50 means the dose at which the effect has come halfway, by size or by number of responders. The low end stands for greater potency, the high end for weaker potency. Consider `CCC(CNC(=O)c1ccc2c(c1)c(Cc1ccc(C(=O)NS(=O)(=O)c3ccccc3Br)cc1OC)cn2C)CC(F)(F)F` (configuration not stated), for which the Ratio in experiment [1] was 56. Moreover, the 50% effective dose (ED50) in experiment [2] came out at 0.045 µmol/kg.
